{"sequences": {"note": "By UniProt entry, the sequences of proteins in these tests, tags left out. Where a name states a change or a piece, a line headed by the entry shows the natural chain unless it says otherwise.", "UniProt Q64346": "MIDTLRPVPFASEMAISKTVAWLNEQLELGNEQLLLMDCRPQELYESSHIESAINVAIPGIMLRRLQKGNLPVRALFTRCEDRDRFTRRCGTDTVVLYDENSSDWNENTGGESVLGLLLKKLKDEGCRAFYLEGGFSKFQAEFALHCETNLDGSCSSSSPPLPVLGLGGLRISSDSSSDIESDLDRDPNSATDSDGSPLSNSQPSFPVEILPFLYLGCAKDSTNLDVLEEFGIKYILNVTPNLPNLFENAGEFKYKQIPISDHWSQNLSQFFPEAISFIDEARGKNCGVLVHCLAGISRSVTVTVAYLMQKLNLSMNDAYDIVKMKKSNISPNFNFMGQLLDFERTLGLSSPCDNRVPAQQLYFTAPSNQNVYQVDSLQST"}, "source": "PubChem BioAssay AID425", "about": "(Sanford-Burnham Center for Chemical Genomics, 2006)", "note": "This is a selection; strong and weak results do not stand in their true shares. Results with a measured potency or affinity are listed apart. Activity calls are given as the source filed them. Cut-off read from the data, not from the text of the source: active = inhibition above about 50%; inactive = the rest."}
{"target": "Dual specificity protein phosphatase 6 (Rattus norvegicus) (UniProt Q64346)", "assay": "MKP-3 phosphatase inhibitors, primary screen, biochemical, rat enzyme, in vitro (AID 425);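 note: plate controls were vehicle for no effect and reference inhibitor for full effect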", "settings": "recombinant MKP-3 phosphatase activity, fluorescence; at 20 µM; stronger effect = higher value"}
{"smiles": "O=C(COc1ccccc1)OC1CN2CCC1CC2", "note": "(stereo not given)", "inhibition": "inactive: 1.7%"}
{"smiles": "COC(=O)c1ccc(OP(=O)(Oc2ccc(Cl)cc2C)SCC(C)C)cc1", "note": "(stereo not given)", "inhibition": "inactive: 1.1%"}
{"smiles": "COP1(=S)c2c(C)nn(CCC#N)c2N=C(c2ccc(F)cc2)N1C", "note": "(stereo not given)", "inhibition": "inactive: -4.4%"}
{"smiles": "O=C(OC1CN2CCC1CC2)C12CC3CC(CC(C3)C1)C2", "note": "(stereo not given)", "inhibition": "inactive: 2.4%"}
{"smiles": "O=C(CF)NC(Sc1ccc(Cl)cc1)C(Cl)(Cl)Cl", "note": "(stereo not given)", "inhibition": "inactive: -3.8%"}
{"smiles": "O=C(NC(SC1=NCCS1)C(Cl)(Cl)Cl)c1ccc(I)cc1", "note": "(stereo not given)", "inhibition": "inactive: 2.5%"}
{"smiles": "O=P(Nc1nccs1)(c1ccccc1)c1nc2ccccc2s1", "note": "(stereo not given)", "inhibition": "inactive: -2.4%"}
{"smiles": "CCOP1(=S)c2c(C)nn(CCC#N)c2N=C(c2ccccc2F)N1C", "note": "(stereo not given)", "inhibition": "inactive: -7.9%"}
{"smiles": "CCOP1(=S)c2c(C)nn(CCC#N)c2N=C(c2ccc(F)cc2)N1C", "note": "(stereo not given)", "inhibition": "inactive: -3.4%"}
{"smiles": "Cc1cccc(OCC(=O)OC2CN3CCC2CC3)c1", "note": "(stereo not given)", "inhibition": "inactive: -4.4%"}
{"smiles": "Cc1cc(C)nc(SC(NC(=O)c2ccccc2)C(Cl)(Cl)Cl)n1", "note": "(stereo not given)", "inhibition": "inactive: -0.1%"}
{"smiles": "Clc1n[nH]nc1-c1nn[nH][15n]1", "inhibition": "inactive: -3.7%"}
{"smiles": "O=P1(Nc2ccccn2)COc2ccccc2OC1", "inhibition": "inactive: -1.8%"}
{"smiles": "Cc1nn(-c2ccccc2)c2c1P(=O)(N1CCOCC1)N(C)C(c1ccccc1)=N2", "note": "(stereo not given)", "inhibition": "inactive: -12.5%"}
{"smiles": "Cc1ccc(SC(NC(=O)c2ccccc2)C(Cl)Cl)cc1", "note": "(stereo not given)", "inhibition": "inactive: -1.3%"}
{"smiles": "O=P1(Nc2ccc(Br)cn2)COc2ccccc2OC1", "inhibition": "inactive: -5.4%"}
{"smiles": "Cc1ccc(OCC(=O)OC2CN3CCC2CC3)cc1", "note": "(stereo not given)", "inhibition": "inactive: -8.4%"}
{"smiles": "O=P1(Nc2ncccn2)COc2ccccc2OC1", "inhibition": "inactive: -1.3%"}
{"smiles": "O=CNC(Sc1nc2ccccc2o1)C(Cl)(Cl)Cl", "note": "(stereo not given)", "inhibition": "inactive: 3.7%"}
{"smiles": "CCCCSP(=O)(OCC(C)C)OCC(C)C", "inhibition": "inactive: -3.7%"}
{"smiles": "O=C(OC1CN2CCC1CC2)c1cccc(Cl)c1", "note": "(stereo not given)", "inhibition": "inactive: -2.2%"}
{"smiles": "CCOC(=O)NC(Sc1nc2ccccc2o1)C(Cl)(Cl)Cl", "note": "(stereo not given)", "inhibition": "inactive: 1.5%"}
{"smiles": "c1nnnn1CCn1cnnn1", "inhibition": "inactive: -1.5%"}
{"smiles": "O=P(Nc1nccs1)(c1ccccc1)c1ccccc1", "inhibition": "inactive: -2.4%"}
{"smiles": "COC(=O)NC(Sc1ccc(Cl)cc1)C(Cl)Cl", "note": "(stereo not given)", "inhibition": "inactive: -1.5%"}
{"smiles": "O=P1(Nc2nc3ccc(Cl)cc3s2)COc2ccccc2O1", "note": "(stereo not given)", "inhibition": "inactive: 1.4%"}
{"smiles": "COC(=O)c1cc2c(s1)N=C(c1ccccc1)N(C)P2(=O)N1CCOCC1", "note": "(stereo not given)", "inhibition": "inactive: -7.9%"}
{"smiles": "CCCCOP(=O)(OCCCC)SC", "inhibition": "inactive: 2.7%"}
{"smiles": "Cc1c2non([O-])c-2c(C)[n+](=O)[n+]1[O-]", "inhibition": "inactive: -6.9%"}
{"smiles": "CCc1nc2c(n1)c1c(non1O)c1c2no[n+]1[O-]", "inhibition": "inactive: -4.9%"}
